# Data from ChEMBL document CHEMBL3425465, “Synthesis, antimalarial and antitubercular activities of meridianin derivatives” (Eur J Med Chem, 2015).
# System: LLC-PK1
# Experiment: Cytotoxicity against pig LLC-PK1 cells assessed as cell growth inhibition after 48 hrs by neutral red assay
# Format: cell-based
# Settings: Sus scrofa, LLC-PK1, 48 h
compound,measurement,value
COc1cccc2c1C(=O)c1c(O)c3c(c(O)c1C2=O)C[C@@](O)(C(=O)CO)C[C@@H]3O[C@H]1C[C@H](N)[C@H](O)[C@H](C)O1 [DOXORUBICIN],IC50,2.6 µM
